Tested on: Staphylococcus aureus
Conditions: ATCC 29213

GENTAMICIN
MIC: 0.5 µg/mL

Source: ChEMBL document CHEMBL3351521, “Benzene-1,3-dicarboxylic acid 2,5-dimethylpyrrole derivatives as multiple inhibitors of bacterial Mur ligases (MurC-MurF)” (Bioorg Med Chem, 2014)
